Results as given in US8765808B2, “Treatment or prevention of cancer and precancerous disorders” (CHS Pharma, Inc., priority 2005, dated 2014).
Where two headings read alike, the source gives them in different places.

Legend:
[1] = system: neonatal rat cardiac myocytes; settings: Normal Cardiomyocyte, 200 μM epimer, 4 hours
Protocol: FIG. 23 is a graph showing the metabolic conversion of the R & S epimers of sulindac to the sulfide form in cardiac myocytes. The amount of sulindac sulfide formed by 10^6 cells incubated with 400 μM sulindac, R, S or RS mixture is measured as a function of time of incubation. […] The absorbance was measured at 330 nm.
To inhibit fibroblast growth, 0.1 mM bromodeoxyuridine was included in the medium for the first 3-5 days after plating. Cell cultures are incubated with sulindac or its individual epimers for specified times.
After the incubations, the cells were pelleted by low speed centrifugation and lysed by the addition of 200 μl of 100% acetonitrile, followed by vigorous vortexing. The lysate was centrifuged for 15 minutes at 14,000×g to pellet cell debris. 50 μl of the supernatant was transferred to an HPLC autosampler microvial. The separation of metabolites is carried out on a 4.6×75 mm C18 reverse-phase column. […] The metabolites are detected at a wavelength of 330 nm.
The cells are incubated with 200 μM R- or S-Sulindac epimer for 4 hours in a defined, serum-free medium (EX-CELL^SM). After incubation, the cells are collected, rinsed and lysed with acetonitrile. The cytosolic contents are separated on a C-18 column.

[2] = system: SCC-25 squamous cell skin cancer cell line; test: MTS cell viability after pretreatment and oxidative stress, SCC skin cancer cells; type: cell-based, human; settings: SCC-25, TBHP (FIG. 14)
Protocol: SCC-25 is a human squamous cell carcinoma cell line developed by J G Rheinwald [Rheinwald, 1981]. […] The cells were maintained in minimum essential medium (Eagle) supplemented with 2 mM L-glutamine, Earle's BSS containing 1.5 g/L sodium bicarbonate, 0.1 mM non-essential amino acids, 1.0 mM sodium pyruvate and 10% fetal bovine serum.
The experimental approach was to pretreat SCC cells with sulindac for 24 hr prior to exposure to TBHP for 2 hr. Sulindac (Sigma; S-8139) was freshly prepared as a 1M stock solution in 1M Tris.Cl, pH 8.0. SCC cells were suspended in culture medium containing 10% fetal bovine serum at a cell density of 6×10^5 cells/ml. Cell suspensions containing 500 μM sulindac or no sulindac (Control) were plated in 96 well microtiter plates with a total of 6×10^4 cells per well. The plates were incubated for 24 hr at 37° C. in a 5% CO2 incubator. The culture medium was then removed and the cells washed once with fresh culture medium without serum. After removal of the wash solution, fresh culture medium without serum that contained the indicated final concentration of TBHP was added to the cells for 2 hrs. Serum was omitted from the medium during the two-hour exposure to TBHP since TBHP may be rapidly depleted in the presence of serum.

[3] = system: Normal HEK skin cells (human neonatal epidermal keratinocytes); test: Intracellular ROS by indicator dye fluorescence, normal HEK skin cells; settings: Table 4; Sul 500 uM alone
[4] = system: SCC skin cancer cells; test: Intracellular ROS by indicator dye fluorescence, SCC skin cancer cells

Compound	R/S (%) [1] [%]	R/S (%) ([1]; listed as R epimer)	potency in enhancing killing relative to sulfone metabolite [2]	fold increase compared to untreated control [3] [fold]	fold increase compared to untreated control ([4]; Table 2, Sul 0.5 mM 24 hours and/or TBHP 100 μM 2 hours) [fold]	fold increase compared to untreated control ([4]; Table 3, Sul 500 μM 24 hours and/or TBHP 100 μM 2 hours) [fold]	synergistic enhancement of ROS levels relative to additive value ([4]; sulindac 500 uM in combination with TBHP 100 uM)
CC1=C(CC(=O)O)c2cc(F)ccc2/C1=C\c1ccc([S+](C)[O-])cc1 (stereo not shown) [R-epimer, R-sulindac sulfoxide]	9	< 10	–	–	–	–	–
CC1=C(CC(=O)O)c2cc(F)ccc2/C1=C\c1ccc([S+](C)[O-])cc1 (racemic) [sulindac, Sulindac]	–	–	more potent than the sulfone metabolite	0	2	2	2 × the additive value of sulindac or TBHP alone
